According to patent publication US20250042848A1, “DEUTERATED FUNCTIONALIZED DERIVATIVES OF alpha-ALANINE, IN [sequence] FOR THE TREATMENT OF NEUROLOGICAL DISEASES” (UNIWERSYTET JAGIELLONSKI, priority 2021, published 2025):

Conditions: mouse, in vivo, po, 40 mg/kg
Procedure: The animals were housed at a temperature of 22-24° C., humidity of 50% (+/−10%), in a room providing 15 air changes per hour, with 12:12 hours light-dark cycle. In addition, they had constant access to food and water. […] Blood was allowed to clot at room temperature for 20 min, then centrifuged for 5 min, 10,000×g (Eppendorf miniSpin centrifuge, Germany) to obtain serum. The obtained biological material was stored at −70° C. until analysis.
Concentrations of the tested compounds in murine serum and brain homogenates were determined by high-performance liquid chromatography-tandem mass spectrometry (HPLC-MS/MS). Analyzes were performed on a Sciex QTRAP 4500 triple quad mass spectrometer coupled to an Exion LC AC HPLC (Danaher Corporation, USA). The chromatographic separation was carried out on a Hypersil Gold™ C18 column (3×50 mm, 5 μm, Thermo Scientific, USA), using a mixture of acetonitrile and water with 0.1% formic acid as the mobile phase. Analyzes were performed at 40° C. and the gradient shown in Table 7 was used to obtain optimal retention time. Valsartan was used as an internal standard. Positive ionization mode (ESI+) was used for maximum sensitivity. Ion path parameters were optimized by continuous infusion (7 μL/min) of a solution of the tested compound directly to the mass spectrometer using a syringe pump. […]

SMILES: CC(C(=O)NCc1ccccc1F)N1C(=O)CCC1=O (stereo not shown) [Compound 2, reference compound]
- Vz/F: 2.91 L/kg
